# Target: T1, Dihydrofolate reductase (Rattus norvegicus, UniProt Q920D2)
# T1 sequence (Q920D2 whole entry): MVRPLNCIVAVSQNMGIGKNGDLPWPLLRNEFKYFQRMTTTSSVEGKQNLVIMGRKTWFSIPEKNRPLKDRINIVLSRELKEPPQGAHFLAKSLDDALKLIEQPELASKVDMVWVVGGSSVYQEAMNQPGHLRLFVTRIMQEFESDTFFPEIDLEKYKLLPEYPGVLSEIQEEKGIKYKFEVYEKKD
# Experiment: Inhibitory activity against dihydrofolate reductase of rat liver
row,IC50,SMILES
1,12000 nM,N#Cc1ccc2nc(N)nc(N)c2c1
2,1510 nM,Nc1nc(N)c2cc(CNC(=O)Cc3ccc(Cl)c(Cl)c3)ccc2n1
3,33.1 nM,Cc1c(NC(=O)Cc2ccc(Cl)cc2)ccc2nc(N)nc(N)c12
4,12.9 nM,Nc1nc(N)c2c(Cl)c(NC(=O)Cc3ccc(Br)cc3)ccc2n1
5,21900 nM,"Nc1nc(N)c2ccccc2n1 [quinazoline-2,4-diamine]"
